The results in this text go back to patent US7786308B2 (priority 2005, dated 2010).

Chains of the proteins cited; added tags and fusions are not shown.
UniProt P08172, whole entry: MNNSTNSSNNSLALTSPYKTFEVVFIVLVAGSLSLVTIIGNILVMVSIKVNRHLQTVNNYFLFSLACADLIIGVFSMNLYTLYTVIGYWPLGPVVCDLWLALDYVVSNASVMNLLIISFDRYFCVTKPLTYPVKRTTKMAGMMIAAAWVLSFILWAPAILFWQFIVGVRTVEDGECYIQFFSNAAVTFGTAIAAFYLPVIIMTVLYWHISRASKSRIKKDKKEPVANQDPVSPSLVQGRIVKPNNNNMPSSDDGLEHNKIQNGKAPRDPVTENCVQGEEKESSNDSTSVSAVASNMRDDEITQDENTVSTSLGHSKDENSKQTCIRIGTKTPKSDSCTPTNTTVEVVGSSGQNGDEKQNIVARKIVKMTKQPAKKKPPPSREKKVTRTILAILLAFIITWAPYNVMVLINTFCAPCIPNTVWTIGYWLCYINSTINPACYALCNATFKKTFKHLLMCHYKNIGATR
UniProt P11229, whole entry: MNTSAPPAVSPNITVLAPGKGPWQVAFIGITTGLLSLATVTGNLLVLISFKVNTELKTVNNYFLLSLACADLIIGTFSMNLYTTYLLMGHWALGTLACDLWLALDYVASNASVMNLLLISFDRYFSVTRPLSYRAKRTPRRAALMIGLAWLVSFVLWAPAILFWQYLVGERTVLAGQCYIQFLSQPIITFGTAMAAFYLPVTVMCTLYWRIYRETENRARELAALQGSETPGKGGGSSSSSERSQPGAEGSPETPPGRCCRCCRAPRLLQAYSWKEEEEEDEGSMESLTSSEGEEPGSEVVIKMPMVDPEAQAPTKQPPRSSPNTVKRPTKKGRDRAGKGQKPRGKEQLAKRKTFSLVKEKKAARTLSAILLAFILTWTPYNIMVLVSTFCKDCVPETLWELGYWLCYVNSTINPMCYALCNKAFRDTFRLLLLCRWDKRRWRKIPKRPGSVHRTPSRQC
UniProt P20309, whole entry: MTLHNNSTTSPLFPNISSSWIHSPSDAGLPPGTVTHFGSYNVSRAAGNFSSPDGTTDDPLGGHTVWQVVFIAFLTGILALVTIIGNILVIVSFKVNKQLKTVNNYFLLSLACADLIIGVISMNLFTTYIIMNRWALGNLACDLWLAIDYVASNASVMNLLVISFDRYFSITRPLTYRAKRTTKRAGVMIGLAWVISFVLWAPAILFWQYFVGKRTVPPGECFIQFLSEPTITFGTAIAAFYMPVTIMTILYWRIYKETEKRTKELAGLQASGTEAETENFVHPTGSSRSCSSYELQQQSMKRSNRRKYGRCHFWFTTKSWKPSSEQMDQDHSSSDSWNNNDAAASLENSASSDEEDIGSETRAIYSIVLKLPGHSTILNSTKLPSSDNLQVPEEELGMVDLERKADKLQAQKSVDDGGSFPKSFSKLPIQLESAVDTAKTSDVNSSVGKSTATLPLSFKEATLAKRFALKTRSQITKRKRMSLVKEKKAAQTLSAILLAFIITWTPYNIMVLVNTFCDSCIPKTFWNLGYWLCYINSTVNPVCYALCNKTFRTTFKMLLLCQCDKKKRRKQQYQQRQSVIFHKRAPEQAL
UniProt P08173, whole entry: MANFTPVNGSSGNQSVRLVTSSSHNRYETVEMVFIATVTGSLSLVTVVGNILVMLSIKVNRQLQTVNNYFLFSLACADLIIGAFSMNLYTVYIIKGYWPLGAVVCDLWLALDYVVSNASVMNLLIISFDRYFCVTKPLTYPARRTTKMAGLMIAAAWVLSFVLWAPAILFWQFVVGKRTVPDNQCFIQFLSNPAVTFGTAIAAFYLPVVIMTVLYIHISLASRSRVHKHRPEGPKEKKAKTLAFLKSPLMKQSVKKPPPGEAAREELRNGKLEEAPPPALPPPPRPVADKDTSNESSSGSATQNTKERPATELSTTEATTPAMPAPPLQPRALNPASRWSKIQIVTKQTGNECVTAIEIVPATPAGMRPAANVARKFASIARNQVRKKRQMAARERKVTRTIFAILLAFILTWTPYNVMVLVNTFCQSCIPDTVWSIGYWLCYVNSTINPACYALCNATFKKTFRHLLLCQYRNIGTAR

Only a part of the results on these compounds is given; other tests are left out.

Type in all cases: cell-based
Details in all cases: 100% efficacy is the maximum response obtained with the Carbachol control

For one assay, the target named is M2 muscarinic receptor (Homo sapiens, UniProt P08172). Briefly: Functional mobilization of intracellular calcium (FLIPR), M2-CHO cells.
Another assay addresses M1 muscarinic receptor (Homo sapiens, UniProt P11229). Briefly: Functional mobilization of intracellular calcium (FLIPR), M1-CHO cells.
The target in the next assay is M3 muscarinic receptor (Homo sapiens, UniProt P20309). Description: Functional mobilization of intracellular calcium (FLIPR), M3-CHO cells.
The next assay deals with M4 muscarinic receptor (Homo sapiens, UniProt P08173). Description: Functional mobilization of intracellular calcium (FLIPR), M4-CHO cells.

In the case of `CCOC(=O)N1C2CCC1CC(N1CCC(N(C(C)=O)c3cccc(Cl)c3)CC1)C2` (stereo not shown), the “M2 Efficacy” value on M2 muscarinic receptor is “+ (efficacy was calculated to be less than 25%)”. Further, on M1 muscarinic receptor, the “M1 Efficacy” value was “++ (efficacy was calculated to be from 100% to 25%)”. Moreover, the “M3 Efficacy” value on M3 muscarinic receptor was “++ (efficacy was calculated to be from 100% to 25%)”. In addition, the “M4 Efficacy” value on M4 muscarinic receptor is “++ (efficacy was calculated to be from 100% to 25%)”.

With `CCOC(=O)N1C2CCC1CC(N1CCC(N(C(C)=O)c3ccc(C(C)(C)C)cc3)CC1)C2` (stereo not shown), at M2 muscarinic receptor, the “M2 Efficacy” value is recorded as “+ (efficacy was calculated to be less than 25%)”. On M1 muscarinic receptor, the “M1 Efficacy” value was “++ (efficacy was calculated to be from 100% to 25%)”. Moreover, on M3 muscarinic receptor, the “M3 Efficacy” value is listed as “+ (efficacy was calculated to be less than 25%)”. In addition, the “M4 Efficacy” value at M4 muscarinic receptor is “+ (efficacy was calculated to be less than 25%)”.

For the compound `CCON=C1CCC(N2CCC(N(C(=O)OC)c3ccc(F)cc3)CC2)CC1` (stereo not shown), on M2 muscarinic receptor, the “M2 Efficacy” value is “++ (efficacy was calculated to be from 100% to 25%)”. For the same compound, on M1 muscarinic receptor, the “M1 Efficacy” value is recorded as “++ (efficacy was calculated to be from 100% to 25%)”. In addition, the “M3 Efficacy” value at M3 muscarinic receptor is “+ (efficacy was calculated to be less than 25%)”. Besides, on M4 muscarinic receptor, the “M4 Efficacy” value is “++ (efficacy was calculated to be from 100% to 25%)”.

For `CCOC(=O)N1C2CCC1CC(N1CCC(N(C(C)=O)c3ccc(C)c(C)c3)CC1)C2` (stereo not shown), the “M2 Efficacy” value on M2 muscarinic receptor is given as “+ (efficacy was calculated to be less than 25%)”. The “M1 Efficacy” value at M1 muscarinic receptor is reported as “++ (efficacy was calculated to be from 100% to 25%)”. Besides, the “M3 Efficacy” value at M3 muscarinic receptor is listed as “++ (efficacy was calculated to be from 100% to 25%)”. Moreover, at M4 muscarinic receptor, the “M4 Efficacy” value is reported as “++ (efficacy was calculated to be from 100% to 25%)”.

Consider `CCOC(=O)N1C2CCC1CC(N1CCC(N(C(C)=O)c3ccccc3OC)CC1)C2` (stereo not shown), for which, on M2 muscarinic receptor, the “M2 Efficacy” value is “+ (efficacy was calculated to be less than 25%)”. Also, at M1 muscarinic receptor, the “M1 Efficacy” value is “++ (efficacy was calculated to be from 100% to 25%)”. Besides, the “M3 Efficacy” value at M3 muscarinic receptor is “+ (efficacy was calculated to be less than 25%)”. In addition, the “M4 Efficacy” value on M4 muscarinic receptor is recorded as “++ (efficacy was calculated to be from 100% to 25%)”.

Consider “N-(1-(4-(ethoxyimino)cyclohexyl)piperidin-4-yl)-N-(4-fuorophenyl)acetamide”, for which the “M2 Efficacy” value on M2 muscarinic receptor is “+ (efficacy was calculated to be less than 25%)”. In addition, the “M1 Efficacy” value at M1 muscarinic receptor was “++ (efficacy was calculated to be from 100% to 25%)”. For the same compound, the “M3 Efficacy” value on M3 muscarinic receptor was “+ (efficacy was calculated to be less than 25%)”. For the same compound, the “M4 Efficacy” value at M4 muscarinic receptor is reported as “++ (efficacy was calculated to be from 100% to 25%)”.

Take `CCOC(=O)N1C2CCC1CC(N1CCC(N(C(C)=O)c3cccc(F)c3)CC1)C2` (stereo not shown): the “M2 Efficacy” value on M2 muscarinic receptor is reported as “+ (efficacy was calculated to be less than 25%)”. The “M1 Efficacy” value on M1 muscarinic receptor is “++ (efficacy was calculated to be from 100% to 25%)”. Besides, the “M3 Efficacy” value on M3 muscarinic receptor is on record as “+ (efficacy was calculated to be less than 25%)”. Moreover, the “M4 Efficacy” value at M4 muscarinic receptor is on record as “++ (efficacy was calculated to be from 100% to 25%)”.

As to `CCC1CCC(N2CCC(N(C(=O)OC)c3ccc(F)cc3)CC2)CC1` (stereo not shown), the “M2 Efficacy” value at M2 muscarinic receptor is given as “+ (efficacy was calculated to be less than 25%)”. Also, the “M1 Efficacy” value at M1 muscarinic receptor is listed as “++ (efficacy was calculated to be from 100% to 25%)”. Moreover, the “M3 Efficacy” value at M3 muscarinic receptor is “+ (efficacy was calculated to be less than 25%)”. In addition, on M4 muscarinic receptor, the “M4 Efficacy” value is listed as “+ (efficacy was calculated to be less than 25%)”.

As to `CCCCOC(=O)N1C2CCC1CC(N1CCC(N(C(C)=O)c3ccc(F)cc3)CC1)C2` (stereo not shown), the “M2 Efficacy” value on M2 muscarinic receptor is “+ (efficacy was calculated to be less than 25%)”. In addition, the “M1 Efficacy” value at M1 muscarinic receptor was “++ (efficacy was calculated to be from 100% to 25%)”. Besides, the “M3 Efficacy” value on M3 muscarinic receptor was “+ (efficacy was calculated to be less than 25%)”. Moreover, at M4 muscarinic receptor, the “M4 Efficacy” value is “+ (efficacy was calculated to be less than 25%)”.

Turning to `CCOC(=O)N1C2CCC1CC(N1CCC(N(C(C)=O)c3ccc(F)cc3F)CC1)C2` (stereo not shown), the “M2 Efficacy” value at M2 muscarinic receptor is reported as “+ (efficacy was calculated to be less than 25%)”. For the same compound, the “M1 Efficacy” value at M1 muscarinic receptor is reported as “++ (efficacy was calculated to be from 100% to 25%)”. Also, the “M3 Efficacy” value at M3 muscarinic receptor is given as “++ (efficacy was calculated to be from 100% to 25%)”. In addition, the “M4 Efficacy” value at M4 muscarinic receptor is recorded as “+ (efficacy was calculated to be less than 25%)”.

For `CCOC(=O)N1C2CCC1CC(N1CCC(N(C(C)=O)c3ccccc3C)CC1)C2` (stereo not shown), the “M2 Efficacy” value at M2 muscarinic receptor is given as “+ (efficacy was calculated to be less than 25%)”. Also, at M1 muscarinic receptor, the “M1 Efficacy” value is recorded as “++ (efficacy was calculated to be from 100% to 25%)”. For the same compound, the “M3 Efficacy” value at M3 muscarinic receptor is given as “+ (efficacy was calculated to be less than 25%)”. Also, the “M4 Efficacy” value on M4 muscarinic receptor is on record as “++ (efficacy was calculated to be from 100% to 25%)”.

Regarding `CCOC(=O)N1C2CCC1CC(N1CCC(N(C(=O)C(C)C)c3ccc(F)cc3)CC1)C2` (stereo not shown), the “M2 Efficacy” value on M2 muscarinic receptor was “+ (efficacy was calculated to be less than 25%)”. Besides, at M1 muscarinic receptor, the “M1 Efficacy” value is on record as “++ (efficacy was calculated to be from 100% to 25%)”. For the same compound, at M3 muscarinic receptor, the “M3 Efficacy” value is “+ (efficacy was calculated to be less than 25%)”. The “M4 Efficacy” value at M4 muscarinic receptor is listed as “++ (efficacy was calculated to be from 100% to 25%)”.

Regarding `CC(=O)N(c1ccc(F)cc1)C1CCN(C2CC3CCC(C3)C2)CC1` (stereo not shown), the “M2 Efficacy” value on M2 muscarinic receptor was “+ (efficacy was calculated to be less than 25%)”. Besides, on M1 muscarinic receptor, the “M1 Efficacy” value is “++ (efficacy was calculated to be from 100% to 25%)”. Moreover, the “M3 Efficacy” value at M3 muscarinic receptor was “+ (efficacy was calculated to be less than 25%)”. Besides, the “M4 Efficacy” value at M4 muscarinic receptor was “+ (efficacy was calculated to be less than 25%)”.

`CCOC(=O)N1C2CCC1CC(N1CCC(N(C(C)=O)c3ccc(OC)cc3)CC1)C2` (stereo not shown): the “M2 Efficacy” value on M2 muscarinic receptor is “+ (efficacy was calculated to be less than 25%)”. Moreover, the “M1 Efficacy” value at M1 muscarinic receptor is given as “++ (efficacy was calculated to be from 100% to 25%)”. The “M3 Efficacy” value at M3 muscarinic receptor is recorded as “+ (efficacy was calculated to be less than 25%)”. For the same compound, the “M4 Efficacy” value at M4 muscarinic receptor is “++ (efficacy was calculated to be from 100% to 25%)”.

Regarding `CC(=O)N(c1ccc(F)cc1)C1CCN(C2CC3CCC(C2)N3C(=O)OCCF)CC1` (stereo not shown), the “M2 Efficacy” value on M2 muscarinic receptor is on record as “+ (efficacy was calculated to be less than 25%)”. The “M1 Efficacy” value on M1 muscarinic receptor is listed as “++ (efficacy was calculated to be from 100% to 25%)”. Moreover, the “M3 Efficacy” value at M3 muscarinic receptor is “+ (efficacy was calculated to be less than 25%)”. In addition, the “M4 Efficacy” value at M4 muscarinic receptor is “++ (efficacy was calculated to be from 100% to 25%)”.

As for `CC(=O)N(c1ccc(F)cc1)C1CCN(C2CC3CCC(C2)N3C(=O)N(C)C)CC1` (stereo not shown), the “M2 Efficacy” value at M2 muscarinic receptor is reported as “+ (efficacy was calculated to be less than 25%)”. In addition, the “M1 Efficacy” value on M1 muscarinic receptor is reported as “+ (efficacy was calculated to be less than 25%)”. Further, the “M3 Efficacy” value on M3 muscarinic receptor is reported as “+ (efficacy was calculated to be less than 25%)”. The “M4 Efficacy” value on M4 muscarinic receptor is reported as “+ (efficacy was calculated to be less than 25%)”.

Turning to `CCOC(=O)N1C2CCC1CC(N1CCC(N(C(C)=O)c3ccc(Cl)cc3)CC1)C2` (stereo not shown), the “M2 Efficacy” value at M2 muscarinic receptor was “+ (efficacy was calculated to be less than 25%)”. Also, on M1 muscarinic receptor, the “M1 Efficacy” value is “++ (efficacy was calculated to be from 100% to 25%)”. Also, at M3 muscarinic receptor, the “M3 Efficacy” value is given as “++ (efficacy was calculated to be from 100% to 25%)”. In addition, the “M4 Efficacy” value on M4 muscarinic receptor is listed as “++ (efficacy was calculated to be from 100% to 25%)”.

Regarding `CC#CCOC(=O)N1C2CCC1CC(N1CCC(N(C(C)=O)c3ccc(F)cc3)CC1)C2` (stereo not shown), the “M2 Efficacy” value on M2 muscarinic receptor was “++ (efficacy was calculated to be from 100% to 25%)”. In addition, on M1 muscarinic receptor, the “M1 Efficacy” value is on record as “++ (efficacy was calculated to be from 100% to 25%)”. In addition, the “M3 Efficacy” value on M3 muscarinic receptor is “++ (efficacy was calculated to be from 100% to 25%)”. In addition, the “M4 Efficacy” value at M4 muscarinic receptor was “++ (efficacy was calculated to be from 100% to 25%)”.

On to `CC(=O)N(c1ccc(F)cc1)C1CCN(C2CC3CCC(C2)N3S(=O)(=O)c2ccccc2)CC1` (stereo not shown), for which, on M2 muscarinic receptor, the “M2 Efficacy” value is listed as “+ (efficacy was calculated to be less than 25%)”. In addition, the “M1 Efficacy” value on M1 muscarinic receptor was “++ (efficacy was calculated to be from 100% to 25%)”. For the same compound, on M3 muscarinic receptor, the “M3 Efficacy” value is “+ (efficacy was calculated to be less than 25%)”. In addition, the “M4 Efficacy” value on M4 muscarinic receptor was “+ (efficacy was calculated to be less than 25%)”.
